The values below are quoted from earlier work in patent US4245096A, “Bis-(2,4-dinitrophenyl)-methyl-pyridinium and quinolinium compounds” (dated 1981).

Only a part of the results on these compounds is given; other tests are left out.

For this data set the following is noted: known compounds, background.

Turning to hexanitrophenylmethane, the absorption result was “usable absorption” and the “solubility or pK value” was “too low a solubility or too high a pK value”.
